Source: article PMC9866339, “In Silico and In Vitro Study of Janus Kinases Inhibitors from Naphthoquinones” (Molecules, 2023)

System: HEL cells
Test: Presto Blue cytotoxicity assay on HEL cells
Conditions: 10 μM, result in words

## O=C1C=CC(=O)c2c(O)cccc21 [Juglone, juglone]
  Cytotoxicity screening on HEL cells: high cytotoxicity
